What was measured:
[1] = system: central α2-adrenoceptors; test: In vivo antagonism of clonidine-induced mydriasis; set-up: species or system rat (Sprague-Dawley); details: for Antagonism of Clonidine Induced Mydriasis (ED2X): anesthetized rats, pretreated 5 minutes before i.v. clonidine, dose causing doubling of clonidine ED50, N=4/group
Procedure: Administration of clonidine to rat produces mydriasis by an α2 -adrenergic mechanism in the central nervous system as reported by Koss et al., Naunyl-Schmiedeberg's Arch. […] Ophthal. […] Antagonism of the mydriatic action of clonidine was used as an in vivo test to examine the ability of the compounds to penetrate the central nervous system and antagonize α2 -adrenoceptors in the rat.
Adult male Sprague-Dawley rats (250-450 g) were anesthetized with chloral hydrate (120-160 mg/kg i.p.), and a femoral vein was cannulated for drug administration. Body temperature was maintained at 37° C.±0.5. The eye was illuminated using a light with green filters to provide added contrast to aid in visualization of the iris. Pupil diameter was measured using a dissecting microscope containing an ocular micrometer with a resolution of 0.1 mm.
Five minutes was allowed to elapse between successive doses of clonidine, and pupil diameter was determined immediately prior to the injection of the next dose of clonidine. The dose of clonidine required to cause 50% of the maximum increase in diameter of the pupil was determined for each rat, using logarithmic linear regression analysis. […] The potency of antagonists was expressed as ED2X values, i.e. the calculated dose of antagonist required to cause a doubling in the ED50 value for clonidine.

[2] = target: T1, peripheral α2-adrenoceptors (Rattus norvegicus, UniProt P22909); test: In vitro field-stimulated rat vas deferens test: antagonism of clonidine (Schild analysis, pA2); format: cell-based
T1 construct: isolated, field-stimulated rat vas deferens is utilized as an in vitro model; from tissue; host or cells: rat vas deferens (isolated, field-stimulated)
T1 sequence (P22909 1-465): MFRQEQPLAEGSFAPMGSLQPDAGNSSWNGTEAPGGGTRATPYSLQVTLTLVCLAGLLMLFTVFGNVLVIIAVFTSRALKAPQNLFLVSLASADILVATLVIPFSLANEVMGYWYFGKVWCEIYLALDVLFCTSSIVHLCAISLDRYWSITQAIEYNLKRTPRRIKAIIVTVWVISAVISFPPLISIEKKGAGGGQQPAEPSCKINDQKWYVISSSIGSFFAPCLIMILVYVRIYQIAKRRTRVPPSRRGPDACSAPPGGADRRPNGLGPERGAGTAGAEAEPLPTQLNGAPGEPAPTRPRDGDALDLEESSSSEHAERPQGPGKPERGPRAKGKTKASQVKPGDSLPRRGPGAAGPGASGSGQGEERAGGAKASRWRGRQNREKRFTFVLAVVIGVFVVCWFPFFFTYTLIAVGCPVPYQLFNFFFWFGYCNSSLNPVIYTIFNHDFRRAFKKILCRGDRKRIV
Text: In the test, isolated, field-stimulated rat vas deferens is utilized as an in vitro model to determine the potency and selectivity of compounds toward the various α-adrenoceptor subtypes. Selective α2 -adrenoceptor agonists such as clonidine reduce the magnitude of neurogenic contractions in the peripheral smooth muscle by reducing the stimulated release of norepinephine through the activation of presynaptic α2 -adrenoceptors on the noradrenergic nerve terminals.
The vas deferens from rats weighing 250-350 grams were freed of connective and fatty tissue and suspended between two platinum electrodes in an organ bath under 0.5 gram tension. The organ bath contained Tyrode's solution which was bubbled with 5% CO2 and 95% O2 and stimulated with square wave pulses at 0.1 Hz, 0.3 msec in duration and supramaximal voltage (30-50 V). Contractile responses were recorded. α2 -Agonist drug (clonidine) was added cumulatively to the bath and EC50 values determined by regression analysis. […] Computation of the pA2 value was performed using the formula: pA2 =pAx +log (x-1), where pAx is the negative logarithm of the molar concentration of antagonist and x is the dose ratio of EC50 values for the agonist before and after addition of the antagonist.

[3] = target: T1, peripheral α2-adrenoceptors; test: Peripheral versus central α2-adrenoceptor selectivity, vas deferens compared with mydriasis data; details: relative to yohimbine

Row | SMILES | Antagonism of Clonidine Induced Mydriasis (ED2X) [1] | Kb ([2]; isolated field-stimulated rat vas deferens, agonist clonidine, antagonist at least 20 minutes contact) | higher affinity for α2-adrenoceptors than yohimbine ([2]; vas deferens data, relative to yohimbine) | less potent in eliciting a response mediated by central α2-adrenoceptors (mydriasis data) ([1]; relative to yohimbine) | more selective for the periphery than yohimbine [3]
1 | COC(=O)[C@@H]1[C@H]2C[C@H]3c4[nH]c5ccccc5c4CCN3C[C@@H]2CC[C@@H]1O [Yohimbine, reference compound] | 0.136 mg/kg i.v. | – | – | – | –
2 | CS(=O)(=O)NCCN1C(=O)NC[C@]12CCN1CCc3c(oc4ccccc34)[C@@H]1C2 [Arylquinolizine Compound A, (2R,12bS)-3'-(2-methanesulfonamidoethyl)-spiro-[1,3,4,6,7,12b-hexahydrobenzo[b]furo[2,3-a]quinolizin]-2,4'-imidazolidin-2'-one] | 18.0 mg/kg i.v. | 3.02 nM | seven | 132 fold | about 900 times
